# Results taken from paper PMC8976073 (Nature Communications, 2022).
# Residue numbers refer to the chain shown, from its start.
# How the values were obtained:
# FPR2 [1] = target: T1, FPR2 (Homo sapiens, UniProt P25090, S84R); assay: Competition binding: inhibition of WK(FITC)YMVm binding to FPR2 (wild type and mutants), HEK293F cells; settings: FPR2 S84R, mean ± SEM
# T1 construct: expressed in transfected cells; host or cells: HEK293F cells, pTT5 vector
# T1 sequence (P25090 1-351 S84R): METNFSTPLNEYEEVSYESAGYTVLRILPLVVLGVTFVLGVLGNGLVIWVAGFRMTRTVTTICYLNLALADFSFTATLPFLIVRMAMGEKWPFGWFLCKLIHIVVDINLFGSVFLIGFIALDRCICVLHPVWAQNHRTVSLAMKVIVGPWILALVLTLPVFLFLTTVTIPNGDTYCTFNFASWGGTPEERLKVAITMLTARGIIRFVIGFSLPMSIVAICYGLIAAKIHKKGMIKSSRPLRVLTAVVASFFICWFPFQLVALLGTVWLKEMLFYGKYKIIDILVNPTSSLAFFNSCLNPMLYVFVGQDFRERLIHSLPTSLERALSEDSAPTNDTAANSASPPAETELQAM
# Procedure: (§1) The genes of wild-type FPR1 and FPR2 and mutants with a Flag tag at the N termini were cloned into pTT5 vector (Invitrogen) and expressed in HEK293F cells (Invitrogen). Cells were harvested 48 h post transfection with 1 μg ml^−1 plasmid. Cell-surface expression of the receptors was measured by mixing 10 μl cells with 15 μl of TBS buffer supplemented with 4% BSA, 20% (v/v) viability-staining solution 7-AAD (Invitrogen, Cat#00-6993-50), and 0.1% (v/v) anti-FLAG M2-FITC antibody (Sigma, Cat#F4049) at 4 °C for 20 min. After incubation, 175 μl of TBS buffer was added and the fluorescent signal was measured using a flow-cytometry reader (Guava easyCyte HT, Millipore). Then, the cells were washed and resuspended to a final concentration of 1 × 10^6 cells per ml in Hanks’ Balanced Salt Solution (HBSS) buffer supplemented with 0.5% bovine serum albumin (BSA) and 20 mM HEPES, pH 7.4.
# (§2) The mean fluorescent intensity of each well was then read by the FCM reader. Total binding and nonspecific binding were measured in the absence and presence of the unlabeled ligand (200 μM WKYMVm), respectively. […] Mean fluorescent-intensity values were measured by flow cytometry. Data were analyzed using Prism 8.0 (GraphPad software).
# FPR2 [2] = target: T2, FPR2 (Homo sapiens, UniProt P25090); assay: as above; design: expressed in transfected cells; host or cells: HEK293F cells, pTT5 vector, co-transfected with GαΔ6qi4myr (1:2 w/w); settings: FPR2 WT, mean ± SEM
# T2 sequence (P25090 1-351): T1 sequence (P25090 1-351 S84R) with R84S
# Procedure: as §1, §2
Structure (SMILES),Ki (FPR2 [1]) [µM],Ki (FPR2 [2]) [µM]
"CC[C@H](C)[C@H](NC(=O)[C@H](CCC(=O)O)NC(=O)[C@H](CO)NC(=O)[C@@H](NC(=O)[C@H](CC(C)C)NC(=O)[C@H](CC(C)C)NC(=O)[C@H](CC(C)C)NC(=O)[C@H](CC(C)C)NC(=O)[C@H](CS)NC(=O)[C@H](CO)NC(=O)[C@H](Cc1ccccc1)NC(=O)CNC(=O)[C@H](CCCNC(=N)N)NC(=O)[C@@H]1CCCN1C(=O)[C@H](C)NC(=O)[C@H](CCSC)NC=O)[C@@H](C)O)C(=O)N[C@@H](CC(=O)O)C(=O)N[C@@H](CC(C)C)C(=O)N1CCC[C@H]1C(=O)N[C@H](C(=O)N[C@@H](CCCCN)C(=O)N[C@@H](CCCNC(=N)N)C(=O)N[C@@H](CCCNC(=N)N)C(=O)N[C@@H](C)C(=O)O)C(C)C [fHN, N-formyl humanin]",4.9,0.1
CC[C@H](C)[C@H](NC(=O)[C@H](CCC(=O)O)NC(=O)[C@H](CO)NC(=O)[C@@H](NC(=O)[C@H](CC(C)C)NC(=O)[C@H](CC(C)C)NC(=O)[C@H](CC(C)C)NC(=O)[C@H](CC(C)C)NC(=O)[C@H](CS)NC(=O)[C@H](CO)NC(=O)[C@H](Cc1ccccc1)NC(=O)CNC(=O)[C@H](CCCNC(=N)N)NC(=O)[C@@H]1CCCN1C(=O)[C@H](C)NC(=O)[C@H](C)NC=O)[C@@H](C)O)C(=O)N[C@@H](CC(=O)O)C(=O)N[C@@H](CC(C)C)C(=O)N1CCC[C@H]1C(=O)N[C@H](C(=O)N[C@@H](CCCCN)C(=O)N[C@@H](CCCNC(=N)N)C(=O)N[C@@H](CCCNC(=N)N)C(=O)N[C@@H](C)C(=O)O)C(C)C [M1A],–,20
